From PubChem
ERp5 block – inhibitors of ERp5-driven insulin aggregation, primary screen, biochemical, turbidity, absorbance 650 nm, single point; Protein disulfide-isomerase A6 (Homo sapiens), Q15084; 90 min; inhibition, % at 9.99 µM; 0.05% of 350,000 active; AID 651711, 2012;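 active = mean replicate inhibition above about 25%, with every replicate also reaching it, limit read from the data, passing the limit was not always enough; inconclusive = only one of those two criteria met; inactive = neither criterion met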
Yeast UUG start – yeast start codon fidelity modulation; AID 602363; activity score, % at 18.7 µM; S. cerevisiae UUG-firefly luciferase reporter, luminescence/redox ratio; 0.13% of 350,000 active;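 active means replicate mean at a twofold rise or more, about +100% in these data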;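 further: firefly luciferase made from a UUG start codon reports start codon fidelity; reporter light over untreated wells divided by growth signal over untreated wells; some hits fall short of that in this replicate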
PDI turbidity – inhibitors of human PDI, primary screen, biochemical, turbidity, single point, plate reader; Protein disulfide-isomerase (Homo sapiens), P07237; PDI insulin aggregation turbidity, A650, 90 min; inhibition, % at 10 µM; 0.052% of 350,000 active;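 active = mean inhibition across replicates of 30% or more, whatever share of single replicates reach that level; inconclusive = mean inhibition below 30% while every single replicate reaches 30%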
FGF22 binding – binders of human FGF22 protein, primary screen, FGF22 synaptogenesis inhibitor project, biophysical, thermal shift, single point; activity (Tm shift, normalised), % at 9.99 µM; recombinant FGF22 thermal shift, SYPRO orange fluorescence; percent of sucrose octasulfate shift, DMSO zero; Fibroblast growth factor 22 (Homo sapiens), Q9HCT0; 1.5% of 340,000 active;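 active = mean Tm shift, scaled 0 neutral to 100 positive control, at about 1.3% or above, every replicate too, limit read from the data; inconclusive = no clear call, values can overlap the other calls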
S100A4 inh HTS – inhibitors of S100A4-myosin IIA peptide binding, primary screen, biochemical, fluorescence polarization, TAMRA-MyoIIA peptide | Protein S100-A4 (Homo sapiens), P26447 | inhibition, % at 10.7 µM | 0.14% of 360,000 active;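 active = mean inhibition of at least 70% across replicates, with every replicate also reaching that level; inconclusive = mean inhibition reaches 70% but some replicates fall short; inactive = mean inhibition below 70%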
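Assay system: human S100A4 monomer with TAMRA-labelled myosin IIA peptide / Buffer or medium: Calcium-containing HEPES buffer, pH 7.2 / Reagent: TAMRA-labelled myosin IIA heavy-chain peptide probe, 5 nM / Compound: one dose per compound / Timing: polarization read 5 min after assay mix addition, stable 5–60 min / Benchmarks: neutral control DMSO, positive control TFP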
SIRT5 block – SIRT5 desuccinylase inhibitors, primary screen, biochemical, fluorescence imaging, single point, set 5; AID 652115, 2013; Purified SirT5, succinyl-peptide AMC, trypsin-coupled fluorescence; 1.1% of 330,000 active; inhibition, % at 15 µM; NAD-dependent protein deacylase sirtuin-5, mitochondrial (Homo sapiens), Q9NXA8; in the data active = inhibition above about 15%; inconclusive = no clear call, values can overlap the other calls
An asterisk follows results filed as active; u = inconclusive; x = no result; + = active, no number. Rows were chosen to be rich in hits. Some 2.2% of all compounds tested hit in one or more screens of this group.

Amino acid sequences for entries named in this document (tags omitted).
Protein disulfide-isomerase A6 (Homo sapiens), Q15084, UniProt Q15084, whole entry, looked up: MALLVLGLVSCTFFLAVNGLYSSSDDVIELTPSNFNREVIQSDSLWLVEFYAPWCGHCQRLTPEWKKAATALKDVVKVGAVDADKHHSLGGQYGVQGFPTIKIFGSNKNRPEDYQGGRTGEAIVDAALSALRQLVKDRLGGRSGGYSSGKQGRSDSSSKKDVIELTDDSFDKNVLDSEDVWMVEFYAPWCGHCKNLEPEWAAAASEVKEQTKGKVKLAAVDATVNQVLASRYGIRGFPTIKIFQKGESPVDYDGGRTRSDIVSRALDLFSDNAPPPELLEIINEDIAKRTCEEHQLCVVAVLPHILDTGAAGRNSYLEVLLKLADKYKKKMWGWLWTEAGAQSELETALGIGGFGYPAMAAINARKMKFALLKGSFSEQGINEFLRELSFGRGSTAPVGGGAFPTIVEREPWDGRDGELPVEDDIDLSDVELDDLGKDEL

SMILES | ERp5 block | Yeast UUG start | PDI turbidity | FGF22 binding | S100A4 inh HTS | SIRT5 block
c1ccc(CNC2CN3CCC2CC3)cc1 (configuration not stated) | 1 | -13 | 1 | x | -2 | x
CSc1ccc(CNC2CN3CCC2CC3)cc1 (configuration not stated) | 2 | -18 | -3 | 0 | 3 | 29*
O=C(CN1CCCC1)Nc1ccc(Cl)cc1C(=O)c1ccccc1 | -11 | x | -1 | 0 | -9 | 15*
O=C(COC(=O)c1cccc(O)c1)Nc1ccc(Cl)cc1C(=O)c1ccccc1 | 2 | x | 0 | 52* | -6 | 1
CCOc1ccccc1OCC(=O)Nc1ccc(Cl)cc1C(=O)c1ccccc1 | -2 | -22 | -1 | 0 | -2 | -3
Cc1ccccc1N1C(=O)NC(=O)/C(=C\c2cnn(-c3ccccc3)c2)C1=O | 6 | x | 2 | 0 | -6 | 20*
O=C(c1cccnc1)N1Cc2ccccc2-n2nncc2C1 | 1 | x | 1 | 44* | 0 | x
Cc1ccccc1C(=O)N1Cc2ccccc2-n2nncc2C1 | 1 | -8 | 0 | 0 | 1 | 2
CN(C)c1ccc(/C=C/C=C2/C(=O)NC(=O)N(c3ccccc3)C2=O)cc1 | -3 | x | -6 | 44* | -84 | -3
O=C1NC(=O)N(c2ccccc2)C(=O)/C1=C/C=C/c1ccco1 | 4 | -1 | 9 | 0 | -9 | 5
COC(=O)[C@H]1[C@H](CO)[C@H]2Cn3c(ccc(C4=CCCC4)c3=O)[C@@H]1N2CC1CCCC1 | -5 | x | x | x | -13 | -5
COC(=O)[C@@H]1[C@@H](CO)[C@@H]2Cn3c(ccc(-c4cccnc4)c3=O)[C@H]1N2S(=O)(=O)c1ccccc1F | 3 | x | x | 0 | 14 | -21
CN(C)Cc1c[nH]c2cc([N+](=O)[O-])ccc12 | -3 | -3 | -5 | 0 | 5 | 16*
CN(C)Cc1c[nH]c2ccc([N+](=O)[O-])cc12 | 3 | -14 | -7 | 0 | -2 | x
COC(=O)[C@H]1[C@H](CO)[C@H]2Cn3c(ccc(-c4ccccc4)c3=O)[C@@H]1N2CCc1ccccc1 | 0 | -12 | x | 0 | 3 | 1
CN1/C(=C\C=C2C(=O)NC(=O)NC2=O)C(C)(C)c2ccccc21 | -2 | x | 1 | 0 | 45 | 1
CCN1/C(=C/C=C/C2=[N+](CC)c3ccccc3C2(C)C)C(C)(C)c2ccccc21 | 3 | -35 | -9 | 0 | + | 3
C/C=C/c1ccc(C2[C@@H]3CN(C(=O)C4CC4)C[C@H]2N3)cc1 (some centres not stated) | -3 | x | x | x | 6 | 1
COC1/C=C/C=C(\C)Cc2cc(O)c(Cl)c(c2)N(C)C(=O)CC(OC(=O)C(C)C)C2(C)OC2C(C)C2CC1(O)NC(=O)O2 (configuration not stated) | 6 | x | 63* | 0 | -2 | -2
O=C(COC(=O)c1cc(Br)cc(Br)c1O)NC12CC3CC(CC(C3)C1)C2 | -9 | -13 | -4 | 1.7* | 7 | x

Brought forward from above: 4 compounds; new compounds follow.
SMILES | ERp5 block | Yeast UUG start | PDI turbidity | FGF22 binding | S100A4 inh HTS | SIRT5 block
CCN1/C(=C/C=C/C2=[N+](CC)c3ccccc3C2(C)C)C(C)(C)c2ccccc21 | 3 | -35 | -9 | 0 | + | 3
C/C=C/c1ccc(C2[C@@H]3CN(C(=O)C4CC4)C[C@H]2N3)cc1 (some centres not stated) | -3 | x | x | x | 6 | 1
COC1/C=C/C=C(\C)Cc2cc(O)c(Cl)c(c2)N(C)C(=O)CC(OC(=O)C(C)C)C2(C)OC2C(C)C2CC1(O)NC(=O)O2 (configuration not stated) | 6 | x | 63* | 0 | -2 | -2
O=C(COC(=O)c1cc(Br)cc(Br)c1O)NC12CC3CC(CC(C3)C1)C2 | -9 | -13 | -4 | 1.7* | 7 | x
COc1ccc(NC(c2ccccc2F)P(=O)(Oc2ccccc2)Oc2ccccc2)cc1 (configuration not stated) | 2 | x | -10 | 44* | 0 | 4
COc1ccc(NC(c2ccccc2)P(=O)(Oc2ccccc2)Oc2ccccc2)cc1 (configuration not stated) | 2 | x | -11 | 0 | -3 | 0
N#CC1=C(N)Oc2c(c(=O)sc3ccccc23)C1c1ccncc1 (configuration not stated) | -3 | x | -3 | 1 | 7 | 16*
COC(=O)[C@H]1[C@H](CO)[C@H]2Cn3c(ccc(C4=CCCCC4)c3=O)[C@@H]1N2CC1CCCCC1 | 5 | x | x | x | 1 | -6
CC(C)OC(=O)Nc1ccc(N=C(N)N[N+](=O)[O-])cc1 | 7 | x | 7 | 43* | 1 | -1
COC(=O)[C@@H](N)CCCN=C(N)N[N+](=O)[O-] | -4 | -7 | 3 | 0 | -5 | 2
Cc1nc2c(=O)n(C)c(=O)nc-2n(C)n1 | x | x | 189* | x | x | x
COC(=O)[C@H]1[C@H](CO)[C@H]2Cn3c(ccc(-c4ccccc4F)c3=O)[C@@H]1N2 | 5 | x | x | 0 | -9 | -6
COC(=O)[C@H]1[C@H](CO)[C@H]2Cn3c(ccc(-c4ccc(F)cc4)c3=O)[C@@H]1N2Cc1ccccc1 | 7 | x | x | 0 | 15 | -1
CCCC[C@@H](C)C[C@@H](C)C(=O)N(C)[C@@H](CC(C)C)C(=O)N[C@H](C(=O)N(C)[C@H](C(=O)N1C[C@@H](O)C[C@H]1C(=O)N1C(=O)C=C[C@@H]1C)C(C)C)C(C)OC(C)=O (some centres not stated) | x | -12 | 37* | x | x | x
OC[C@H]1Nc2ccc(C#Cc3cccnc3)cc2[C@H]2NCC[C@H]21 | -1 | x | x | x | -8 | -10
C[C@@H]1CN([C@@H](C)CO)C(=O)c2c(c3ccccc3n2C)-c2ccccc2CO[C@H]1CN(C)C(=O)Oc1ccccc1 | -4 | x | x | x | 7 | 3
Cc1ccc(N2Cc3ccccc3C2=N)cc1[N+](=O)[O-] | -1 | x | 1 | 0 | 8 | 26*
CCN(CC)C(=O)c1ccc(NC(=O)COc2ccccc2F)cc1 | 6 | 9 | -4 | 41 | -2 | 21*
CC12CCC3C(CC=C4CC5(CCC43C)OCCO5)C1CCC2=O (configuration not stated) | -1 | -10 | -3 | 44* | -2 | 8
COc1ccc(F)cc1C(=O)C1CCCN(Cc2ccc(O)cc2)C1 (configuration not stated) | 1 | -2 | 0 | 0 | -10 | 17*
COC(=O)[C@H]1[C@H](CO)[C@H]2Cn3c(ccc(-c4ccccc4)c3=O)[C@@H]1N2C(=O)c1ccccc1F | -7 | 1 | x | 0 | x | -20
Cc1ccc2c(c1)C1CN(C)CCC1N2C(=O)c1cn(-c2ccccc2)nc1-c1ccccc1 (configuration not stated) | -66 | x | 3 | 1.6* | 2 | 2
CCN1CC2(COC(=O)c3ccccc3N)CCC(OC)C34C5CC6C(OC)CC(O)(C5C6OC)C(O)(C(OC)C23)C14 (configuration not stated) | x | -5 | u | x | 2 | x
